Test system: human embryonic stem cell-derived cardiomyocyte cluster (hES-CMC)
Assay: On-chip MEA field potential recording of hCM clusters (temporal FPD and STVFPD)
Conditions: 10 μM (Ref. dose ca. 10^2 × CMAX), ratio against the control, mean ± S.E.

NC(N)=Nc1nc(CSCCC(N)=NS(N)(=O)=O)cs1 [Famotidine]
FPD (ratio): 1.02 ± 0.02 ratio
STVFPD (ratio): 1.03 ± 0.09 ratio

Reference: paper PMC5381194, “On-chip in vitro cell-network pre-clinical cardiac toxicity using spatiotemporal human cardiomyocyte measurement on a chip” (Scientific Reports, 2014)
